{"sequences": {"note": "The chains behind the UniProt entries cited, without tags or fusion partners.", "UniProt Q96GD4, whole entry": "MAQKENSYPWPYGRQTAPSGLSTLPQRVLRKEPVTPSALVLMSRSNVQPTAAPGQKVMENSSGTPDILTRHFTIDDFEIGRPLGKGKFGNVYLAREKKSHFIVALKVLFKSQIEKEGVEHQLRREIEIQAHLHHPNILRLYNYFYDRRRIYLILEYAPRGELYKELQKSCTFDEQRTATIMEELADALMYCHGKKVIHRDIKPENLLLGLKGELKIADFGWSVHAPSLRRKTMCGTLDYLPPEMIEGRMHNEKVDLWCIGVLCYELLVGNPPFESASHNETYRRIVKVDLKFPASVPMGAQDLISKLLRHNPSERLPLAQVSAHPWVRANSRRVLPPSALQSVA"}, "source": "patent US9907800B2", "about": "“Kinase inhibitors and method of treating cancer” (University Health Network, priority 2010, dated 2018)", "biological_target": "Aurora B (Homo sapiens (Human), UniProt Q96GD4)", "assay": "Aurora B inhibition assay (Z-Lyte)", "assay_type": "biochemical", "settings": "read-out: Aurora B IC50 Ranges", "data": [{"smiles": "COc1ccc2c(c1)[C@]1(C[C@H]1c1ccc3c(-c4ccc(N5CCN(C(C)C)CC5)cc4)n[nH]c3c1)C(=O)N2", "note": "[Example A97, (1R,2S)-2-(3-(4-(4-isopropylpiperazin-1-yl)phenyl)-1H-indazol-6-yl)-5′-methoxyspiro[cyclopropane-1,3′-indolin]-2′-one 2,2,2-trifluoroacetate]", "values": [{"measurement": "IC50", "result": "< 100", "unit": "nM"}]}]}
